Test results reported in article PMC9117644, “FAS2FURIOUS: Moderate-Throughput Secreted Expression of Difficult Recombinant Proteins in Drosophila S2 Cells” (Frontiers in Bioengineering and Biotechnology, 2022).

Biological target: T1, human TLR4 ectodomain (S2-derived) (human, UniProt O00206 23-629)
T1 construct: human toll-like receptor 4 ectodomain, UniProtKB O00206, P23-M629, Drosophila codon-optimized; Cloned into pExpreS2-1-CRPA (Addgene #175445): N-terminal BiP signal peptide for secretion, C-terminal thrombin-cleavable Protein A tag; a few residues of the thrombin site probably remain after cleavage; also called toll-like receptor 4; Drosophila-derived TLR4; source: purified (IgG Sepharose, …)
Test: ELISA; 1 µg/ml FBG-C coated overnight on the plate, blocked with 10% BSA in PBST; concentration series of TLR4 in PBST + 2% BSA, 2 h at 37°C; TLR4 detected with an anti-TLR4 primary and HRP secondary antibody, TMB, OD450; single biological replicate
Details: both partners purified

B1: C-terminal fibrinogen-like globe domain of human tenascin C (domain or fragment, UniProt P24821 1974-2201, looked up)
chain: IGLLYPFPKDCSQAMLNGDTTSGLYTIYLNGDKAEALEVFCDMTSDGGGWIVFLRRKNGRENFYQNWKAYAAGFGDRREEFWLGLDNLNKITAQGQYELRVDLRDHGETAFAVYDKFSVGDAKTRYKLKVEGYSGTAGDSMAYHNGRSFSTFDKDTDSAITNCALSYKGAFWYRNCHRVNLMGRYGDNNHSQGVNWFHWKGHEHSIQFAEMKLRPSNFRNLEGRRKRA
notes: human tenascin C, fibrinogen-like globe domain, UniProtKB P24821 Isoform 1, I1974-A2201; Vector pNIC-NHStIIT; two disulfide bonds confirmed by intact mass spectrometry; also called FBG-C; source: E. coli BL21 (DE3) Tuner + CyDisCo pMJS226, purified (StrepTactinXT, TEV, SEC on Superdex 75); not shown: His6, N-terminal, cleaved; Twin-Strep-tag, N-terminal, cleaved
binding result: binds
